Our source for the Selectivity ratio values is ChEMBL document CHEMBL1141011, “Carbonic anhydrase inhibitors: 2-substituted-1,3,4-thiadiazole-5-sulfamides act as powerful and selective inhibitors of the mitochondrial isozymes VA and VB over the cytosolic and membrane-associated carbonic anhydrases I, II and IV” (Bioorg Med Chem Lett, 2008).

The species entered for experiment [1] is Homo sapiens. The experiment can be described thus: Selectivity for full length human recombinant mitochondrial carbonic anhydrase 5A over human recombinant cytosolic carbonic anhydrase 2.
The species entered for experiment [2] is Homo sapiens. The experiment in a line: Selectivity for full length human recombinant mitochondrial carbonic anhydrase 5B over human recombinant cytosolic carbonic anhydrase 2.

`CC(=O)Nc1nnc(S(N)(=O)=O)s1`: the Selectivity ratio in the experiment filed under Homo sapiens [1] is 0.19; in the experiment filed under Homo sapiens [2], 0.22.
